# Data reported in patent US10633374B2, “Small molecule based antibody-recruiting compounds for cancer treatment” (YALE UNIVERSITY, priority 2015, dated 2020).
# Amino acid sequences for entries named in this document (tags omitted). Residues count along the entry.
# UniProt Q03405, 23-305 limits assumed: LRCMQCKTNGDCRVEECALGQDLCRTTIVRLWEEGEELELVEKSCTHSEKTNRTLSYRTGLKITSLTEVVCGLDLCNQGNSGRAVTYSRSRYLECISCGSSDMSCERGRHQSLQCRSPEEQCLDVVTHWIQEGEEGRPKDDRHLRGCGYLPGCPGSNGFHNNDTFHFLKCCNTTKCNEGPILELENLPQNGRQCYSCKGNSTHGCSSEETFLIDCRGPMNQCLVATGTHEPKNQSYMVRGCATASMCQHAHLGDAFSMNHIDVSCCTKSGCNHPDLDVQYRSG
# How the values were obtained:
# [1] = test system: A172 glioblastoma cells (cell surface uPAR); assay: Flow cytometry antibody recruiting assay, A172 cells; conditions: tested form: ammonium formate salt
# Method: Next, we tested the ability of ARM-U2 derivatives to recruit anti-DNP antibodies to the surface of A-172 and B-16 cancer cells over-expressing uPAR. These assays involved the incubation of ARM-U2 derivatives with target cancer cells followed by the addition of biotinylated anti-DNP antibodies and streptavidin-AlexaFluor conjugates. After several washing steps, the amount of bifunctional ARM-U2 compound bound simultaneously to both the cell surface and anti-DNP antibodies was detected using flow cytometry by observing shifts in FL-2 and FL-3 fluorescence. These experiments were also conducted on both B16+uPAR cell lines and B16−uPAR cell lines in addition to studies on A172 cells in the presence and absence of exogenously added competitor uPAR to assess selective binding to the cell surface via cell surface uPAR.
# A172 glioblastoma cells (ATCC, CRL-1620) were suspended in Assay Media (phenol-free RPMI 1640 medium plus 10% ultra-low IgG FBS). 10^5 cells taken up in 50 μl media or media containing exogenous uPAR were mixed with a fixed concentration of the indicated ARM-U2 compound from 100×DMSO stocks. After a 1 hour incubation on ice, cells were washed with 1.5 mL of cold Assay Media, pelleted for 2 min at 200 rcf, aspirated, and resuspended in 100 L of fresh assay media with 133 nM of anti-DNP-biotin-xx conjugate antibody[…] (Invitrogen). Cells were allowed to incubate for an additional 30 min on ice, L of a 2 mg/mL stock of streptavidin-AlexaFluor647 conjugate[…] and then 1 (Invitrogen) was added. Negative control tubes contained streptavidin+/−antibody in the absence of ARM-U2. After 15 min more on ice, cells were washed 2× with 1.5 mL of cold Assay Media before flow cytometric analysis. Propidium iodide was added from a 1000× stock as a cell viability stain (FL-3 positive) and antibody recruiting to the cell surface was evaluated by measuring increasing cell counts in the FL-4 channel negative for FL-3 (lower right quadrant of representative dot plots). […]
# [2] = target: uPAR (Homo sapiens, UniProt Q03405); assay: Fluorescence quenching titration of ARM-U2 derivatives with uPAR; conditions: read-out: Kd, solution equilibrium dissociation constant with uPAR; fluorescence titration of 100 nM derivative with increasing uPAR; tested form: ammonium formate salt
# Method: Selected ARM-U2 derivatives were assayed for their ability to bind recombinant uPAR using a fluorescence quenching assay. […] Increasing concentrations of recombinant uPAR were mixed with each compound containing aliquot and the fluorescence of the solution measured following 1 h equilibration times. […] To confirm that the observation of uPAR dependent fluorescence quenching was indeed due to specific binding to uPAR and to validate ARM-U2 binding to uPAR specifically via the uPA binding site, a direct binding ELISA assay was developed. In this assay, clear 96-well high-binding plates from CoStar, were loaded with 100 μl/well of 50 nM recombinant uPAR 807-UK-100-CF from R&D systems prepared from a 100 μg/ml (approx. 2.1 μM) stock of uPAR in PBS and left overnight at room temperature to equilibrate. […] The absorbance at 450 nm was measured using an in-house Perkin-Elmer fluorescence plate reader.
# All ARM-U2 derivatives were assessed for their ability to bind selectively to recombinant uPAR in vitro using a competitive ELISA binding assay. […] Selective binding to uPAR by ARM-U2 at the uPA binding site competes with uPAR-uPA binding which is required for a positive UV 450 nm absorbance signal. Increasing concentrations of ARM-U2 displace increasing amounts of uPAR from uPA which is detected by anti-uPAR/biotin labeled antibodies followed by avidin-HRP. […]
# [3] = test system: B16 melanoma tumors expressing human uPAR; assay: B16 mouse melanoma allograft model expressing human uPAR; assay type: in vivo; conditions: tested form: ammonium formate salt
smiles,measurement,setting,value
O=C1c2ccccc2-c2onc3c(N4CCC[C@H](C(=O)NCCCOCCOCCOCCCNc5ccc([N+](=O)[O-])cc5[N+](=O)[O-])C4)cc(Nc4ccc(S(=O)(=O)O)cc4S(=O)(=O)O)c1c23,"anti-DNP antibody recruiting to A172 cells, FL-4 shift","[1]; 10 uM compound, compared with 1-ABT-1",significantly higher percentage of antibody binding to the cell surface
same,anti-DNP antibody recruiting to A172 cells with exogenous competitor uPAR,[1]; exogenous competitor uPAR added,antibody recruitment could be disrupted
same,anti-DNP antibody recruiting to A172 cells,[1],recruited antibodies significantly better than the other ABT-1 derivatives
same,Kd,[2],8.7 nM
same,average tumor volume after 17 days,[3]; IP injections over 17 days,approximately 200 mm^3
same,mean survival,[3]; daily IP treatment,30 days
same,tumor growth inhibition (TGI),"[3]; daily IP, ARM-U2 20 mpk or 100 mpk, Dox 1 mpk, vs PBS",approximately 90%
same,efficacy of 100 mpk dose compared to 20 mpk,[3]; especially within the first 22 days,moderate decrease in efficacy
same,persistence of tumor regression after treatment cessation,"[3]; mouse, in vivo",14 days
